From patent US20250009745A1, “CDK INHIBITOR” (SHANGHAI QILU PHARMACEUTICAL RESEARCH AND DEVELOPMENT …, priority 2021, published 2025) come the findings set out here.

The chains behind the UniProt entries cited, without tags or fusion partners.
UniProt P11802, whole entry: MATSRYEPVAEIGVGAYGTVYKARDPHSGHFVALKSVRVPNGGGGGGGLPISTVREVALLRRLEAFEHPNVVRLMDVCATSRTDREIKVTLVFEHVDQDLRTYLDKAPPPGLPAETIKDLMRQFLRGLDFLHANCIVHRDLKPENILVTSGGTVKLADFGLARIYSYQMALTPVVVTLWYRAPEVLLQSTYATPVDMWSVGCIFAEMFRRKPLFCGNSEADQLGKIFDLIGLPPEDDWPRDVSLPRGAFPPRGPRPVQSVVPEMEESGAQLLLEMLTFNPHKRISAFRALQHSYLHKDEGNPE
UniProt Q00534, whole entry: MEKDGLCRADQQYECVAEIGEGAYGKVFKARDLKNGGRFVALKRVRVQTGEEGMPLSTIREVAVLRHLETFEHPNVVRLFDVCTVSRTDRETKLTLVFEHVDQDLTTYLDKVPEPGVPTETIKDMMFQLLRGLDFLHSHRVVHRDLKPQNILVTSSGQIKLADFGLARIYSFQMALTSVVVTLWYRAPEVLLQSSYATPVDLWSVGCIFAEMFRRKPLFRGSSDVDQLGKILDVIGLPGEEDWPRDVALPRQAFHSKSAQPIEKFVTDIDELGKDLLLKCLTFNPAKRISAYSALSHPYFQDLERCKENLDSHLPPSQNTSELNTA
UniProt P30281, whole entry partner: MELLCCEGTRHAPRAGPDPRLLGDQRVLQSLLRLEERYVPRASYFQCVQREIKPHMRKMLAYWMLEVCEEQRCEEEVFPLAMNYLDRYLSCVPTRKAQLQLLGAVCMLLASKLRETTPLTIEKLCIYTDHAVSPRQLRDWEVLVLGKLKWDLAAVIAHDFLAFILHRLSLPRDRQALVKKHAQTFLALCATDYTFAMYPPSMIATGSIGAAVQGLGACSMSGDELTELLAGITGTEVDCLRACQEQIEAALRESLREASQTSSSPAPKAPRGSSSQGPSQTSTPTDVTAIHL

Structures are written as SMILES.

The term IC50 denotes the concentration needed to halve the response being measured.

Experiment in all cases: CDK enzymology experiment in vitro, capillary mobility shift assay (MSA)
What all share (format): biochemical

Assay [1] concerns the target CDK2 (Homo sapiens, UniProt P24941). Particulars: read-out: CDK2 (nM) inhibitory IC50.
Assay [2] deals with CDK4 (Homo sapiens, UniProt P11802). Particulars: read-out: CDK4 (nM) inhibitory IC50.
Assay [3] addresses CDK6 (Homo sapiens, UniProt Q00534). The following applies: read-out: CDK6 (nM) inhibitory IC50.

For `C[C@H]1CN(c2ccc(S(=O)(=O)N3CCC(Nc4ncc(C(F)(F)F)c(C=C5CCCC5)n4)CC3)cc2)C[C@H](C)N1`, the IC50 lay in the range of 0.5 to 2.5 nM in assay [1] and 2.5 to 10 nM in assay [2].
For `C[C@H]1CN(c2ccc(S(=O)(=O)N3CCC(Nc4ncc(C(F)(F)F)c(O[C@@H]5CCOC5)n4)CC3)cc2)C[C@H](C)N1`, in that order: 2.5 to 10 nM and 10 to 50 nM.
As to `COc1cc(S(=O)(=O)N2CCC(Nc3ncc(C(F)(F)F)c(O[C@H]4CCOC4)n3)CC2)ccc1C1CCNCC1`, the figures for the IC50 in assay [1], in assay [2] and in assay [3] were below 0.5 nM, 0.5 to 2.5 nM and 0.5 to 2.5 nM, respectively.
For the compound `C[C@@H]1CN(c2ccc(S(=O)(=O)N3CCC(Nc4ncc(C(F)(F)F)c(C=C5CCCC5)n4)CC3)cc2)C[C@H](C)N1`, the values for the IC50 in assay [1], in assay [2] and in assay [3] were 0.5 to 2.5 nM, 2.5 to 10 nM and 10 to 50 nM, respectively.
